# Experimental data taken from US20030049260A1, “Method of improving cognitive function” (priority 2001, published 2003).
# System: patients who underwent CPB with CABG
# Assay: Randomized, double-blind, placebo-controlled study; change in SDMT score from baseline after CABG with CPB
# Assay type: in vivo, human
# Conditions: for Proportion of patients with % change in symbol digit score of +20% / Proportion of patients with % change in symbol digit score of +15% / Proportion of patients with % change in symbol digit score of +10% / Proportion of patients with Improve in symbol digit score / Proportion of patients with % change in symbol digit score of -20% / Proportion of patients with % change in symbol digit score of -15% / Proportion of patients with % change in symbol digit score of -10% / Proportion of patients with Decline in symbol digit score: all procedures, all patients
# Procedure: A randomized, multi-center, double-blind, placebo-controlled study was conducted of a humanized single chain antibody that binds to C5, Pexelizumab, administered to patients who underwent CPB with CABG.
# The study population consisted of individuals who elected to undergo non-emergent coronary-artery bypass graft (CABG) surgery, with or without valve surgery, which required the use of a cardiopulmonary bypass (CPB) machine. There were 692 patients involved in the study of bypass related changes in cognitive function as measured by the Symbol Digit Modalities Test (SDMT). Of these, 617 patients underwent CABG only.
# A total of 399 CABG only patients received one of the following treatment combinations: i) Bolus 2.0 mg/kg Pexelizumab followed by 0.05 mg/kg/hr Pexelizumab for 24 hours; or ii) placebo. The Pexelizumab or matching placebo was provided as a solution for injection in 30 ml vials with a concentration of 2 mg/ml. Patients received the bolus of study medication ten (10) minutes before the initiation of cardiopulmonary bypass via a unique line. The drug was not to be combined with other medication given via this route. The infusion began immediately following bolus administration, and continued for 24 hours at a constant drip rate.
# Patients were evaluated at an initial screening visit at which the SDMT was administered to establish a baseline result for each patient.
# The results of the study for day 4 and day 30 for patients who underwent CABG with or without valve surgery are presented in Tables I and II, respectively, below. The relevance of changes in symbol digit scores at day 4 and day 30 was studied.
# [1] = 30 d, Bolus/Infusion, placebo 22.9
substance,measurement,setting,value
Pexelizumab: humanized single chain antibody that binds to C5 (anti-C5 antibody h5G1.1-scFv),Proportion of patients with % change in symbol digit score of +20%,"4 d, Bolus/Infusion (n = 221), placebo 9.4",13.1
same,Proportion of patients with % change in symbol digit score of +15%,"4 d, Bolus/Infusion (n = 221), placebo 12.1",16.3
same,Proportion of patients with % change in symbol digit score of +10%,"4 d, Bolus/Infusion (n = 221), placebo 13.9",20.8
same,Proportion of patients with Improve in symbol digit score,"4 d, Bolus/Infusion (n = 221), placebo 29.3",37.1
same,Proportion of patients with % change in symbol digit score of -20%,"4 d, Bolus/Infusion (n = 221), placebo 40.4",30.3
same,Proportion of patients with % change in symbol digit score of -15%,"4 d, Bolus/Infusion (n = 221), placebo 47.1",34.0
same,Proportion of patients with % change in symbol digit score of -10%,"4 d, Bolus/Infusion (n = 221), placebo 55.2",41.2
same,Proportion of patients with Decline in symbol digit score,"4 d, Bolus/Infusion (n = 221), placebo 70.7",62.9
same,Proportion of patients with % change in symbol digit score of -20%,"30 d, Bolus/Infusion, placebo 9.8",8.1
same,Proportion of patients with % change in symbol digit score of -15%,"30 d, Bolus/Infusion, placebo 12.6",10.2
same,Proportion of patients with % change in symbol digit score of +20%,[1],31.0
same,Proportion of patients with % change in symbol digit score of -10%,[1],12.7
same,Proportion of patients with % change in symbol digit score of +15%,"30 d, Bolus/Infusion, placebo 31.3",41.6
same,Proportion of patients with Decline in symbol digit score,"30 d, Bolus/Infusion, placebo 32.4",19.8
same,Proportion of patients with % change in symbol digit score of +10%,"30 d, Bolus/Infusion, placebo 41.1",54.8
same,Proportion of patients with Improve in symbol digit score,"30 d, Bolus/Infusion, placebo 67.6",80.2
same,Patients with a decline in symbol digit score of greater than or equal to 10%,"Day 4, patients undergoing CABG only, bolus/infusion, placebo 56%, p=0.02",40%
